Here are results for 2 compounds from PMC10706821, “Folate-Appended Hydroxypropyl-β-Cyclodextrin Induces Autophagic Cell Death in Acute Myeloid Leukemia Cells” (International Journal of Molecular Sciences, 2023).

Series [1] concerns AML cell lines. Nature of the series: modified MTT assay, statements over all AML cell lines. It is filed as cell-based, human. To be noted: 72 h. The method, then: The trypan blue dye exclusion method was used to evaluate cell viability. Cells (HL-60, THP1, SKM1 and Kasumi1 cells) were seeded in flat-bottomed 96-well plates at a density of 1 × 10^4 cells in 100 µL medium per well and incubated with FA-HP-β-CyD (0, 0,1, 0.25, 0.5, 0.75, 1 mM) or HP-β-CyD (0, 1, 2.5, 5, 10 mM) for 72 h. Then, viable cells were counted. Cell proliferation was evaluated by a modified MTT assay using Cell Counting Kit-8 (Dojindo Molecular Technologies, Kumamoto, Japan), as previously described. AML cells were cultured in 96-well plates at a density of 1 × 10^4 cells in 100 µL medium per well and incubated with FA-HP-β-CyD or HP-β-CyD for 72 h. The half-maximal inhibitory concentration values (IC50) were determined by non-linear regression using CalcuSyn software version 1.1.1 (Biosoft, Cambridge, UK), as previously described. After obtaining IC50 values for each agent, the antileukemic activity of FA-HP-β-CyD plus cytosine arabinoside (Ara-C) or Venetoclax was evaluated, as previously described. Five concentrations (0.25-, 0.5-, 0.75-, 1.0-, and 1.5-fold the IC50) of FA-HP-β-CyD plus Ara-C or Venetoclax were used to treat AML cells. […] This method is capable of quantifying synergistic (CI < 1) and antagonistic (CI > 1) effects at different dose and effect levels.

The nature of series [2]: peripheral blood cell count after intraperitoneal administration. To be noted: HP-β-CyD 10,000 mg/kg i.p., seven repeat injections, Day 8.

On to “folate-conjugated HP-β-CyD [FA-HP-β-CyD]”, for which the “IC50 fold lower than those of HP-β-CyD” value in series [1] was “at least 8 fold”.

`CC(O)COC[C@H]1O[C@@H]2O[C@H]3[C@H](O)[C@@H](O)[C@@H](O[C@H]4[C@H](O)[C@@H](O)[C@@H](O[C@H]5[C@H](O)[C@@H](O)[C@@H](O[C@H]6[C@H](O)[C@@H](O)[C@@H](O[C@H]7[C@H](O)[C@@H](O)[C@@H](O[C@H]8[C@H](O)[C@@H](O)[C@@H](O[C@H]1[C@H](O)[C@H]2O)O[C@@H]8COCC(C)O)O[C@@H]7COCC(C)O)O[C@@H]6COCC(C)O)O[C@@H]5COCC(C)O)O[C@@H]4COCC(C)O)O[C@@H]3COCC(C)O` (stereo partly drawn) [HP-β-CyD, 2-Hydroxypropyl-β-cyclodextrin] gave a Hb in series [2] of 14.5 ± 0.78 g/dL.
